These results are taken from patent US20250325688A1, “ANTIBODY-DRUG CONJUGATE CONTAINING PROTEIN DEGRADATION AGENT BIOACTIVE COMPOUND, METHOD FOR PREPARING SAME, AND USE THEREOF” (Medilink Therapeutics (Suzhou) Co., Ltd., priority 2022, published 2025).

The target in test [1] is T1, B7H3 on tumor cells (MCF-7, A549, PC-3) (human, UniProt Q5ZPR3 29-534).
T1 construct: whole, on cells; also called B7H3 proteins expressed in solid tumor cells
T1 sequence (looked up): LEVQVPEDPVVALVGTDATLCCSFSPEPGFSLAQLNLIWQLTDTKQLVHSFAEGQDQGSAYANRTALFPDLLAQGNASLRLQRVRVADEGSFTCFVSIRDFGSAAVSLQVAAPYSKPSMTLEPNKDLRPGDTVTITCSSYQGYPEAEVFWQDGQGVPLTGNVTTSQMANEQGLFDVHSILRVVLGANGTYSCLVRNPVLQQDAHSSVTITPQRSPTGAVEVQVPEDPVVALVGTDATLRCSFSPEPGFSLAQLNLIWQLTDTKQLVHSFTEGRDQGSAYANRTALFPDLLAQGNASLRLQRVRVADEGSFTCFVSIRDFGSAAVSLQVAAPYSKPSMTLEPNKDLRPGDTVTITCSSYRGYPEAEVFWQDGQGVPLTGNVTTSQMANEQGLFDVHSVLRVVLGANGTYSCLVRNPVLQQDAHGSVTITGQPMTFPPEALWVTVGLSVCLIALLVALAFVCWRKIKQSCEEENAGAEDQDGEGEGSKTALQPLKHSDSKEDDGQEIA
Briefly: flow cytometry on MCF-7 tumor cells. As for the experimental part: (§1) B7H3 proteins are highly expressed in various solid tumor cells. The affinity of the B7H3 fully human antibody for tumor cells was assayed by a FACS method. […] The average fluorescence signal values were measured using a Beckman flow cytometer. The EC50 values were calculated from the average fluorescence signal values.

Another test concerns the target T2, monkey B7H3-4IgG-his (monkey).
T2 chain: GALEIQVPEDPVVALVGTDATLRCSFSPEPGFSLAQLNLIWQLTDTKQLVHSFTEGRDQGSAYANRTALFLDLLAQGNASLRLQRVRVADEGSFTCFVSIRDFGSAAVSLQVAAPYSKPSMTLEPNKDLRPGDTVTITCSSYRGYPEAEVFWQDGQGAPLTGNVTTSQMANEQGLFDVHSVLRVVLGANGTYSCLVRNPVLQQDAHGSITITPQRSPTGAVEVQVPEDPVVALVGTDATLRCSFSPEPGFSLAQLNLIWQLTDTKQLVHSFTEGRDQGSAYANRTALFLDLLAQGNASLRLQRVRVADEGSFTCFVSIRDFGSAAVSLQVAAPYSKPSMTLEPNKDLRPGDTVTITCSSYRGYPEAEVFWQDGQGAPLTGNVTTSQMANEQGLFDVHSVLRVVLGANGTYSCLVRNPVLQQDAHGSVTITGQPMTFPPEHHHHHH
Briefly: ELISA, coated monkey B7H3-4IgG-his, anti-human Fc-HRP detection. How it is done: (§2) The affinity of the B7H3 fully human antibodies for human B7H3-4IgG-his and monkey B7H3-4IgG-his proteins was assayed by an ELISA method. The specific experimental procedures are as follows: the human B7H3-4IgG-his or monkey B7H3-4IgG-his protein was diluted with a carbonate buffer with a pH value of 9.6 to a final concentration of 1 g/mL and added to 96-well enzyme-labeled wells at 100 μL/well for coating at 4° C. overnight; the coating solution was discarded, the plate was washed once with PBST, 100 μL of PBS (containing 2% BSA) was added to each well, and the plate was blocked at 37° C. for 1 h; then 100 μL of the B7H3 fully human antibody diluted with PBS (containing 2% BSA) (starting at 10 g, 3-fold dilution in duplicate) was added to each well, and the plate was incubated at 37° C. for 2 h; the plate was washed 3 times with PBST, a horseradish peroxidase-labeled anti-human Fc antibody (diluted with PBS at 1:10000) was added at 100 µL/well, and the system was reacted at 37° C. for 1 h; the plate was washed 5 times with PBST. TMB color development solution was added for color development at 100 μL/well at 37° C. for 7 min, and a stop solution was added to stop the reaction at 50 µL/well. The absorbance was measured at 450 nm. EC50 values were calculated from the original data.

In test [2] the target is T1, B7H3 on tumor cells (MCF-7, A549, PC-3). Briefly: flow cytometry on A549 tumor cells. As for the experimental part: as §1
In the next test the target is T3, human B7H3-4IgG-his (human, UniProt Q5ZPR3 27-461).
T3 construct: range 27-461; Recombinant antigen expressed in HEK293F; also called human B7H3-4IgG-His protein
T3 sequence: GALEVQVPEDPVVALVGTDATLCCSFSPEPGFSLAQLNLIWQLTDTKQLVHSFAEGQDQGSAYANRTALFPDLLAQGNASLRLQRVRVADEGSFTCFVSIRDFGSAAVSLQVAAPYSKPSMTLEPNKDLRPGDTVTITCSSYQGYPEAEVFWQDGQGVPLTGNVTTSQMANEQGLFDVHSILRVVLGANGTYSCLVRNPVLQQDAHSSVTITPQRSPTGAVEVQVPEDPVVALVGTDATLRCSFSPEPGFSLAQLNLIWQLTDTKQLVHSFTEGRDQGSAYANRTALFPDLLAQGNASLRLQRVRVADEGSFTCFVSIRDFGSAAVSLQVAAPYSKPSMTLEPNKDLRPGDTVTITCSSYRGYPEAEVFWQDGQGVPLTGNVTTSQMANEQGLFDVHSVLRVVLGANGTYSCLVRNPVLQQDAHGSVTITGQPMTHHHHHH
Briefly: ELISA, coated human B7H3-4IgG-his, anti-human Fc-HRP detection. As for the experimental part: as §2

In test [3] the target is T1, B7H3 on tumor cells (MCF-7, A549, PC-3). Briefly: flow cytometry on PC-3 tumor cells. As for the experimental part:
as §1

B1: anti-B7H3 antibody 1D1-01 (antibody, V domains shown)
VH: EGQLVESGGGLVQPGGSLRLSCAASGFTISSYWMNWVRQAPGKGLEWVANIKQDGSEKYYVDSVQGRFTISRDNAKNSLYLQMNSLRAEDTAVYYCARRMYSSGWYWGAFDMWGQGTMVTVSS
VL: EIVLTQSPGTLSLSPGERATLSCRASQSVSSIYLAWNQQKPGQAPRLLIYGTFKRATGIPDRFSGSGSGTDFTLTISSLEPEDFAVYYCQQYDTSSITFGQGTRLEIKR
On to B1, for which the EC50 stood at 0.524 nM in test [1], 0.0358 nM in the test with monkey B7H3-4IgG-his, 0.322 nM in test [2] and 0.0436 nM with human B7H3-4IgG-his.

B2: anti-B7H3 antibody 2E3-02 (antibody, V domains shown)
VH: EVQLLESGGGLVQPGGSLRLSCAASGFTFSSYAMNWVRQAPGKGLEWVSGISGSGGSTYYADSVQGRFTISRDNSKNTLYLQMNSLRAEDTAVYYCAKARSGYDYFFDYWGQGTLVTVSS
VL: EIVLTQSPGTLSLSPGERATLSCRASQRISSSFLAWYQQKPGQAPSLLIYGASSRATGIPDRFSGSGSGTDFTLTISSLEPEDFAVFYCQQYSNSPLTFGGGTKVEIKR
Take B2: the half-maximal effective concentration (EC50) in test [1] is 0.398 nM; in the test with monkey B7H3-4IgG-his it was 0.0277 nM; in test [2], 0.15 nM; in the test with human B7H3-4IgG-his it was 0.0175 nM; in test [3], 0.063 nM.
